## scFv variants of Ab-14 (heavy chain) against a SARS-CoV-2 spike peptide

Target: peptide PDVDLGDISGINAS, taken from heptad repeat 2 (HR2) of SARS-CoV-2 spike.

Parent scFv Ab-14: VH joined to VL by the linker GGGGSGGGGSGGGGS. Changes lie in the heavy chain CDRs alone.
VH: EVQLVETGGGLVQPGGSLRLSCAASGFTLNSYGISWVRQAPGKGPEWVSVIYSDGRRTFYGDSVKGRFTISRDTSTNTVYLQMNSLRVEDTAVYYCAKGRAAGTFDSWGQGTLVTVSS
VL: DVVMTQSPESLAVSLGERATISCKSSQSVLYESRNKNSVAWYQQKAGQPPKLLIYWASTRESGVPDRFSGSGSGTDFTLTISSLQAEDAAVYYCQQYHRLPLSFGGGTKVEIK

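Designed CDR sequences, proposed from the first random library and measured here. Group labels follow the data file (En: ensemble of fine-tuned language models; HC: hill climbing; Gen: genetic algorithm; Gibbs: Gibbs sampling; a sequence that several methods proposed may carry one label only). AlphaSeq pools MATa yeast showing the antibodies with MATalpha yeast showing the peptide. Mating (16 h, 30 °C) was followed by selection of diploids and sequencing of their barcodes. Scores were corrected for input abundance and mapped to Kd with protein pairs of known affinity run in the same pool. The assay was run in six technical replicates.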

Each variant is given by its three heavy chain CDRs, as the data file delimits them; those of the parent are GFTLNSYGIS, VIYSDGRRTFYGDSVK, GRAAGTFDS. This list holds designs with more than six substitutions. Scale: log10 of Kd in nM, estimated from mating counts; low values are strong binders. The mean shown is taken over the replicates in which the pair was detected. "nd" marks a missing value. The strain was present, yet no cells mated with the target were sequenced in any replicate, which points to weak or no binding. The authors' rule: three or more of the six replicates give a measured affinity, fewer mean a poor binder.

Variant GFDLDEYGIS | VIYADGVRTAYADSVK | GEVAGTFDM [En_Gen] gave 0.08 (6 of 6 replicates).
Variant GFDLDEYGIS | VIYADGQRTVYADSVK | GENAGTFDV [En_Gen] gave 0.38 (6 of 6 replicates).
Variant GFDLDEYGIS | VIYADGKRTAYADSVK | GENAGTFDT [En_Gen] gave -0.21 (6 of 6 replicates).
Variant GFDLNEYGIS | VIYADGMRTQYADSVK | GNAAGTFDV [En_HC] gave 0.38 (6 of 6 replicates).
Variant GFDIEEYGIS | VIYADGMRQAYLDKVK | GNNGSSGLF [En_Gibbs] gave 4.79 (1 of 6 replicates).
Variant GFDLQEYGIS | VIFADGLRSAYSDKVK | GQLMGYFSV [En_Gibbs] gave nd (0 of 6 replicates).
Variant GFDLDEMGIS | VIYADGVRTAYVDQVK | GMGGTFMNV [En_Gibbs] gave nd (0 of 6 replicates).
Variant GFDLAEYGIS | VIYADGMRVSYDQNVK | GTGGGSFNF [En_Gibbs] gave nd (0 of 6 replicates).
Variant GFNLNEYGIS | VIYADGRRTFYADSVK | GETAGTFDF [En_HC] gave -0.36 (6 of 6 replicates).
Variant GFDINEYGIS | VIYADGRRTFYADSVK | GETAGTFDS [En_HC] gave -0.38 (6 of 6 replicates).
Variant GFDLNEYGIS | VIYADGVRTAYADSVK | GETAGTFDI [En_Gen] gave -0.23 (6 of 6 replicates).
Variant GFDLEDYGIS | VIYADGMRTAYIDSVK | GEVAGTFDV [En_HC] gave 0.41 (6 of 6 replicates).
Variant GFDLDEYGIS | VIYADGSRVAILESVK | GKIAGTLDQ [En_Gibbs] gave -0.18 (6 of 6 replicates).
Variant GFDLNEYGIS | VIYADGMRTFYADDVK | GENAGTFDL [En_Gen] gave -0.63 (6 of 6 replicates).
Variant GFDLNEYGIS | VIYADGRRTAYADSVK | GEIAGTFDQ [En_HC] gave -0.57 (6 of 6 replicates).
Variant GFDLNEYGIS | VIYADGKRTAYADNVK | GETAGTFDQ [En_Gen] gave -0.84 (6 of 6 replicates).
Variant GKHLDEYGIS | VIYADGQRVFYSNTVK | GIQGFNVDV [En_Gibbs] gave nd (0 of 6 replicates).
Variant GFDLNEYGIS | VIYADGRRTAYTDSVK | GHAAGTFVL [En_HC] gave 0.74 (6 of 6 replicates).
Variant GFDLNEYGIS | VIYADGQRTFYADSVK | GNNAGTFIS [En_HC] gave 2.32 (4 of 6 replicates).
Variant GFDLNEYGIS | VIYADGRRTAYADSVK | GQTAGTFDV [En_Gen] gave -0.28 (6 of 6 replicates).
Variant GFDLDEYGIS | VIYADGQRTVYADSVK | GNQAGTFDV [En_Gen] gave 0.01 (6 of 6 replicates).
Variant GFDLEKYGIS | VIYADGIRMSYADNVK | GVYSGTDYV [En_Gibbs] gave 1.95 (1 of 6 replicates).
Variant GFNLQEYGIS | VIYADGMRTAYASKVK | GKVWWFLLM [En_Gibbs] gave nd (0 of 6 replicates).
Variant GFDLDEYGIS | VIYADGMRTAYTDSVK | GTNAGTFDI [En_Gen] gave -0.48 (6 of 6 replicates).
Variant GFDLNEYGIS | VIYADGQRRAAANTVK | GGAVGGQLD [En_Gibbs] gave 2.88 (2 of 6 replicates).
Variant GFDLEEYGIS | VIYADGLRSFYADNFK | GWNSGTIAV [En_Gibbs] gave nd (0 of 6 replicates).
Variant GFDLNEYGIS | VIYADGRRTAYSDSVK | GENAGFFDS [En_HC] gave 2.12 (1 of 6 replicates).
Variant GFSLDEYGIS | VIYADGIRQHYSDQVK | GVVFGNVMF [En_Gibbs] gave 2.88 (1 of 6 replicates).
Variant GFDLGEYGVS | VIYADGLRAQYASKVK | GNFSGNIDV [En_Gibbs] gave nd (0 of 6 replicates).
Variant GFDLNEYGIS | VIYADGRRTFYADSVK | GNVAGTFDA [En_HC] gave -0.27 (6 of 6 replicates).
Variant GFNLDEYGIS | VIYADGMRTAYADSVK | GEVAGTFDQ [En_Gen] gave -0.69 (6 of 6 replicates).

From the list, the first 5 with no signal in any replicate:

With GFDLQEYGIS | VIFADGLRSAYSDKVK | GQLMGYFSV [En_Gibbs] the result was nd (0 of 6 replicates).
With GFDLDEMGIS | VIYADGVRTAYVDQVK | GMGGTFMNV [En_Gibbs] the result was nd (0 of 6 replicates).
With GFDLAEYGIS | VIYADGMRVSYDQNVK | GTGGGSFNF [En_Gibbs] the result was nd (0 of 6 replicates).
With GKHLDEYGIS | VIYADGQRVFYSNTVK | GIQGFNVDV [En_Gibbs] the result was nd (0 of 6 replicates).
With GFNLQEYGIS | VIYADGMRTAYASKVK | GKVWWFLLM [En_Gibbs] the result was nd (0 of 6 replicates).

A sequence measured in both rounds can read differently, since the two assays cover different ranges. Empty control strains, which show no peptide, gave a signal in 1% of pairings with all heavy chain designs; the median was 2.08 and 95% of these signals were weaker than 0.84. No background was subtracted.

Values reported by Li et al. 2023, doi:10.1038/s41467-023-39022-2 (FLAb copy).